Laboratory results taken from patent US20130203790A1, “SULFUR-CONTAINING COMPOUNDS AS ANTI-PROLIFERATIVE AGENTS” (221076 ONTARIO INC., priority 2011, published 2013).

Molecular target: T1, thrombin (thrombin-mediated conversion of fibrinogen to fibrin) (Homo sapiens, UniProt P00734)
T1 construct: purchased Enzyme Research Laboratories
Test: Coagulation assay, microtiter plate turbidity (clot formation, thrombin clot time)
Type: biochemical
Protocol: Coagulation and fibrinolysis were studied simultaneously in a 96-well microtiter plate-based assay system. Varying concentrations of drug in 50 μl buffer or an equivalent volume of saline were added to the wells. To this was added 100 μl of 6 μM fibrinogen, 1 μM Glu-plasminogen and 4 mM CaCl2. Reactions were initiated by addition of 50 μl of buffer containing 2 nM t-PA and 20 nM thrombin. […] As positive controls, hirudin or D-Phe-Pro-Arg chloromethylketone (PPACK) was used in place of the subject compounds. Plates were incubated at 23° C. for 1 h with constant shaking and turbidity was monitored continuously at 405 nm. Clot times and lysis times were determined using instrument soft wave as the times to half maximal increase and decrease in turbidity, respectively. Data are expressed as the mean±SEM of three experiments, each done in triplicate.
Materials used: • Fibrinogen and thrombin were from Enzyme Research Laboratories and t-PA was from Genentech. • Glu-plasminogen was isolated from human plasma as we have described. • Hirudin and PPACK were from Behring AG and Calbiochem, respectively. • The plate reader was from Molecular Devices.

[1] = tested at 0-100 nM, 5 nM thrombin

Question: For “D-Phe-Pro-Arg chloromethylketone [PPACK]”, which “effect on clot formation and lysis profiles” value (compounds of the invention up to 400 μM, hirudin and PPACK as positive controls, 23° C., turbidity at 405 nm) is on record?
Answer: inhibited clot formation and lysis

Question: What about the “concentration causing complete inhibition of clotting” value [1] of the same substance?
Answer: 50 nM

Question: What about the “lowest concentration with measurable effect on clotting” value [1] of the same substance?
Answer: 6.25 nM
